From US10968236B2, “TYK2 inhibitors and uses thereof” (Nimbus Lakshmi, Inc., priority 2015, dated 2021) come the findings set out here.

Sequences of proteins named here, by UniProt entry; tags and fusion partners are left off.
UniProt P29597, whole entry: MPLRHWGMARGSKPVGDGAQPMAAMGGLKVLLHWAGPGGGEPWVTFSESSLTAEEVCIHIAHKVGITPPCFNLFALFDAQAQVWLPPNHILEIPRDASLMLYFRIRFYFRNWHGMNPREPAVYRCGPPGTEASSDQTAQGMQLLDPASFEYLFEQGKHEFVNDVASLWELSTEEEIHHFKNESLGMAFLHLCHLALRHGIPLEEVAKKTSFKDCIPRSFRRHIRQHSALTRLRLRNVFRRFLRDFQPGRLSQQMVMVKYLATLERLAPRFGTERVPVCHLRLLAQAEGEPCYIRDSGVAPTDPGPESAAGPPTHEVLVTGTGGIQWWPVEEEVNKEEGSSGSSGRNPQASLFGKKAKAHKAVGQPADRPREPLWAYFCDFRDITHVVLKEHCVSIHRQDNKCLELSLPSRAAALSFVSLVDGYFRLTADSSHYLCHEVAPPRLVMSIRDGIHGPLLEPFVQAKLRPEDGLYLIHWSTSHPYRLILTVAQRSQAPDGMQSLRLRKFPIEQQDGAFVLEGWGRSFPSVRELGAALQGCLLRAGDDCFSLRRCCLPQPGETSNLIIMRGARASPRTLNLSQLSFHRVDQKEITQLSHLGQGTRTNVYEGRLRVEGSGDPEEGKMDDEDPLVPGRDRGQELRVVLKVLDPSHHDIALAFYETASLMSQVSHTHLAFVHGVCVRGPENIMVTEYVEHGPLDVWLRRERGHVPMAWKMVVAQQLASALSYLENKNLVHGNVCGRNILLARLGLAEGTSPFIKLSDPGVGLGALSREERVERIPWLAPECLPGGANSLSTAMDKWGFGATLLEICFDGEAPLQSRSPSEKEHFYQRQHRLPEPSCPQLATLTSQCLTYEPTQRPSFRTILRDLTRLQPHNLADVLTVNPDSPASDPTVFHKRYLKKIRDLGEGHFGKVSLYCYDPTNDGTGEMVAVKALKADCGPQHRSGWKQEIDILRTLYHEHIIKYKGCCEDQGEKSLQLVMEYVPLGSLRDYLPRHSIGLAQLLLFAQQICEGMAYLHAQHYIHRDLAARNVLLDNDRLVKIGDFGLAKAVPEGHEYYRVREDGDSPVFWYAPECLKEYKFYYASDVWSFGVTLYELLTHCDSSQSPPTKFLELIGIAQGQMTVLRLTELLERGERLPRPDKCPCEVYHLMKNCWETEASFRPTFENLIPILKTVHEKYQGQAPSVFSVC
UniProt O60674, whole entry: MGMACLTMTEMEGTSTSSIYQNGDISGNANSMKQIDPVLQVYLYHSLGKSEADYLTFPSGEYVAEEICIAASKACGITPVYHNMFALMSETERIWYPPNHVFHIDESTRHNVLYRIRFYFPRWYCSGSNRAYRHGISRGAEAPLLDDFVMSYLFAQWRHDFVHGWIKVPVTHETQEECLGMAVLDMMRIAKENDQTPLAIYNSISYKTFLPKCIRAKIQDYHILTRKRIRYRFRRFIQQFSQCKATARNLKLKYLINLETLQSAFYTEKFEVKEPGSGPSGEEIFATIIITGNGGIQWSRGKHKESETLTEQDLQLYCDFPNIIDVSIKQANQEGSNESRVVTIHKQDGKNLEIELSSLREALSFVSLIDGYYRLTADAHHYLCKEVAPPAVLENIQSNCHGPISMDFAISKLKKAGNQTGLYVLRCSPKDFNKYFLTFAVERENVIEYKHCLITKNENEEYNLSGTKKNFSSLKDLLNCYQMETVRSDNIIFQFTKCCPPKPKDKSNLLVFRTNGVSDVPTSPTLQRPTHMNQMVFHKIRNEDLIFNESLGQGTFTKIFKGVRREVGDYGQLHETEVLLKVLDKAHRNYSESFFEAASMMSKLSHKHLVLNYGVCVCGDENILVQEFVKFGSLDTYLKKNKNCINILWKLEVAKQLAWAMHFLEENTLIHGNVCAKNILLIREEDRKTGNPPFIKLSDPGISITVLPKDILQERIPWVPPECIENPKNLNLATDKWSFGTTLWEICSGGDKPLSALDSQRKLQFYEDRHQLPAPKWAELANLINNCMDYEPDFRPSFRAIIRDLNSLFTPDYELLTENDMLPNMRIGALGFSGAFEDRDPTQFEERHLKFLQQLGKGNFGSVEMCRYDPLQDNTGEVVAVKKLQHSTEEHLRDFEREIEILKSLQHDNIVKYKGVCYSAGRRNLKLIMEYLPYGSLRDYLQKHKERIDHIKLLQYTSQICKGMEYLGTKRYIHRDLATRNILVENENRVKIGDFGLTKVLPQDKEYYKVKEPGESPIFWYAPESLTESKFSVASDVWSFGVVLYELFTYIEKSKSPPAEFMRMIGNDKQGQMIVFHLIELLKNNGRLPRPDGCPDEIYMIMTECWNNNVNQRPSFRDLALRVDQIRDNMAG

Experiment [1] concerns the target TYK2 (Homo sapiens (Human), UniProt P29597). The experiment in a line: Tyk2 activity inhibition assay (radioactive kinase / Caliper assay). Particulars: read-out: Tyk2 Ki. The protocol:
(§1) Peptide substrate, [KKSRGDYMTMQIG], (20 μM) is prepared in reaction buffer (20 mM Hepes pH 7.5, 10 mM MgCl2, 1 mM EGTA, 0.02% Brij35, 0.02 mg/mL BSA, 0.1 mM […], 2 mM DTT, 1% DMSO. TYK2 (Invitrogen) kinase is added, followed by compounds in DMSO. 33PATP is added to initiate the reaction in ATP at 10 μM. Kinase reaction is incubated for 120 min at room temp and reactions are spotted onto P81 ion exchange paper (Whatman #3698-915), and then washed extensively in 0.75% phosphoric acid, prior to reading the radioactivity counts. For JAK2 (Invitrogen) kinase assay the peptide substrate poly[Glu:Tyr] (4:1), 0.2 mg/ml is used, in the reaction carried out the same as for TYK2.
(§2) The caliper machine employs an off chip mobility shift assay to detect phosphorylated peptide substrates from kinase assays, using microfluidics technology. The assays are carried out at ATP concentration equivalent to the ATP Km, and at 1 mM ATP. Compounds are serially diluted in DMSO then further diluted in assay buffer (25 mM HEPES, pH 7.5, 0.01% Brij-35, 0.01% Triton, 0.5 mM EGTA). […] Reaction was incubated at 28° C. for 25 min and then added 25 ul stop buffer (100 mM HEPES, 0.015% Brij-35, 50 mM EDTA), followed by reading with Caliper. […]

Experiment [2] deals with JAK2 (Homo sapiens (Human), UniProt O60674). Nature of the experiment: JAK2 activity inhibition assay (radioactive kinase / Caliper assay). To be noted: read-out: JAK2 Ki. The protocol: as §1, §2
Experiment [3] deals with IL-12 induced pSTAT4 (Tyk2-pSTAT4). The experiment in a line: IL-12 Induced pSTAT4 in human PBMC. Particulars: read-out: Tyk2-pSTAT4 EC50, IL-12 1.7 ng/mL. The protocol:
IL-12 Induced pSTAT4 in human PBMC. Human PBMC are isolated from buffy coat and are stored frozen for assays as needed. Cells for assay are thawed and resuspended in complete media containing serum, then cells are diluted to 1.67 E6 cells/ml so that 120 μl per well is 200,000 cells. 15 μl of compound or DMSO is added to the well at the desired concentrations and incubated at 1 hr at 37 C. 15 μl of stimulus (final concentration of 1.7 ng/mL IL-12) is added for 30 minutes prior to pSTAT4 and total STAT4 analysis using cell lysates prepared and analyzed by MSD reagents as per manufacturer protocol. The final DMSO concentration of compound in the assay is 0.1%.
(§3) The compound numbers correspond to the compound numbers in Table 1. Compounds having an activity designated as “A” provided an EC50≤2 μM; compounds having an activity designated as “B” provided a EC50 of 2-20 μM, and compounds having an activity designated as “C” provided an EC50>20 μM.

For experiment [4], the system named is GM-CSF induced pSTAT5 (JAK2-pSTAT5). Nature of the experiment: GM-CSF Induced pSTAT5 in human PBMC. Particulars: read-out: JAK2-pSTAT5 EC50, GM-CSF 5 ng/mL. The protocol: GM-CSF Induced pSTAT5 in human PBMC. Cells are prepared for analysis as in the above procedure and 15 μl of GM-CSF (final concentration 5 ng/mL) is added for 20 minutes prior to pSTAT5 and total STAT5 analysis using cell lysates prepared and analyzed by MSD reagents as per manufacturer protocol. The final DMSO concentration of compound in the assay is 0.1%.
as §3

For the compound `N#Cc1cccc(F)c1-c1cc(Nc2ccc(N3CCC4(CC3)CC4)cn2)c2c(n1)CNC2=O`, the Ki in experiment [1] and in experiment [2] was less than 10 nM in each case. The EC50 in experiment [3] is less than 2000 nM; in experiment [4], 2000 to 20000 nM.
